Source: patent publication US10300036B2, “Compositions and methods for treating and preventing lung injury” (ARIZONA BOARD OF REGENTS on behalf of THE UNIVERSITY OF …, priority 2015, dated 2019)

How the values were obtained:
[1] = system: KEAP1-mediated ubiquitination of NRF2; conditions: for ubiquitination level of NRF2: H1299 cotransfected with NRF2 and HA-Ub, bixin 40 μM or SF 5 μM with MG132, 4 h, vs untreated control
NRF2 signaling pathway = test: Pulmonary NRF2 signaling pathway activation after IP injection (IHC, immunoblot, RT-PCR of lung tissue); conditions: Nrf2+/+ mice

SMILES	NRF2 ubiquitination, endogenous KEAP1 or exogenous KEAP1-WT ([1]; H1299, 40 μM with MG132, 4 h)	NRF2 ubiquitination, KEAP1-C151S ([1]; H1299, KEAP1 siRNA plus KEAP1-C151S, 40 μM with MG132, 4 h)	ubiquitination level of NRF2 [1]	pulmonary protein levels of NRF2 and its target genes (Gclm and Hmox1), immunoblot (NRF2 signaling pathway; IP 200 mg/kg, 72 h, pilot study)	NRF2, HO-1 and GCLM protein levels in lungs (IHC) (NRF2 signaling pathway; IP 200 mg/kg, bixin alone)	NRF2, HO-1 and GCLM in lung total protein (immunoblot) (NRF2 signaling pathway; bixin alone or combined with ventilation)
COC(=O)/C=C/C(C)=C\C=C\C(C)=C\C=C\C=C(C)\C=C\C=C(C)\C=C\C(=O)O [bixin, Bixin]	prevented the ubiquitination	had no effect	markedly reduced	effective in upregulating	able to increase NRF2 protein levels	can induce NRF2, HO-1 and GCLM
C[S+]([O-])CCCCN=C=S (stereo not shown) [SF, sulforaphane, reference compound]	–	–	decreased NRF2 ubquitination	–	–	–
